Laboratory results reported in ChEMBL document CHEMBL5380862, “Unsymmetrical Phosphodiesters as GPR84 Antagonists with High Blood Exposure for the Treatment of Lung Inflammation” (J Med Chem, 2023).

How the values were obtained:
Assay type in all cases: functional, cell-based
Monocyte [1] = assay: Inhibition of cell migration in 3-hydroxydodecanoic acid-stimulated mouse CD11bpositive Ly6Cpositive monocytes at 1 uM incubated for 1.5 hrs by flow cytometric analysis
Neutrophil [2] = assay: Inhibition of cell migration in 3-hydroxydodecanoic acid-stimulated mouse CD11bpositive Ly6Gpositive neutrophils at 0.1 to 1 uM incubated for 1.5 hrs by flow cytometric analysis; conditions: dose 0.1-1 µM
Monocyte [3] = assay: Inhibition of cell migration in 3-hydroxydodecanoic acid-stimulated mouse CD11bpositive Ly6Cpositive monocytes at 0.1 uM incubated for 1.5 hrs by flow cytometric analysis
Monocyte [4] = assay: Inhibition of cell migration in 6-n-octylaminoracil-stimulated mouse CD11bpositive Ly6Cpositive monocyte at 0.1 to 1 uM incubated for 1.5 hrs by flow cytometric analysis; conditions: dose 0.1-1 µM
Neutrophil [5] = assay: Inhibition of cell migration in 6-n-octylaminoracil-stimulated mouse CD11bpositive Ly6Gpositive neutrophils at 0.1 to 1 uM incubated for 1.5 hrs by flow cytometric analysis; conditions: dose 0.1-1 µM

With O=c1nc(OC[C@@H]2COCCO2)cc2n1CCc1cc(C#CC3CC3)ccc1-2 the inhibition (Monocyte [1]) was “Active”, the inhibition (Neutrophil [2]) was “Active” and the inhibition (Monocyte [3]) was “inactive”. For the same compound, the inhibition (Monocyte [4]) was “Active” and the inhibition (Neutrophil [5]) was “Active”.

Activity calls are given as the source filed them. The rule behind the calls is not given here.
